The record followed here is article PMC7559746 (Pharmaceutics, 2020).

For this data set the following is noted: sorafenib monotherapy.

For `CNC(=O)c1cc(Oc2ccc(NC(=O)Nc3ccc(Cl)c(C(F)(F)F)c3)cc2)cc[n+]1[O-]` [Sorafenib-N-oxide, sorafenib-N-oxide], the “Metabolic ratio (metabolite/sorafenib), AUC0–12 h” value was 0.10.
